In patent publication US12065622B2, “Ammonium-based ionic liquid and its use as a lubricant additive” (TOTALENERGIES ONETECH, priority 2020, dated 2024):

Assay: Solubility test in base oil
Type: physicochemical
Details: lubricant composition of IL1 and base oil limpid after three months at room temperature (15-25° C.) and at 60° C.
Method: In order to check that the ammonium-based ionic liquid is oil-soluble, the following test has been achieved:
100 mL of the lubricant composition comprising IL1 and the base oil is introduced into two reaction tubes. One of the tubes is maintained at room temperature (between 15 and 25° C.) and the other reaction tube is placed in an oven at 60° C.
After three months, the lubricant composition of both reaction tubes was limpid.

Tri-n-Octylmethylammonium 2-Ethylhexanoate [IL1]
solubility in the base oil: soluble in the oil
